System: HeLa R19 cells

(S)-fluoxetine [reference compound]
CC50: 21.6 ± 1.4 µM

From PMC7673538 (PLoS Biology, 2020)
